{"source": "patent US20220369688A1", "about": "“ORAL COMPOSITIONS AND RELATED METHODS FOR REDUCING THROAT IRRITATION” (NICOVENTURES TRADING LIMITED, priority 2021, published 2022)", "conditions": "1000 ppm nicotine, 1 molar equivalent sodium benzoate", "data": [{"smiles": "CN1CCCC1c1cccnc1", "note": "(centres unmarked) [nicotine]", "values": [{"measurement": "nicotine partitioned in octanol due to benzoic acid (25.5/28.3)", "result": 90, "unit": "%"}, {"measurement": "total nicotine partitioned into octanol due to propensity of free nicotine (28.3-25.5)", "result": 2.8, "unit": "%"}]}]}
